From US20230295288A1 (TILLOTTS PHARMA, published 2023)

The chains behind the UniProt entries cited, without tags or fusion partners. Residues count along the entry.
UniProt P01375, 77-233 limits assumed: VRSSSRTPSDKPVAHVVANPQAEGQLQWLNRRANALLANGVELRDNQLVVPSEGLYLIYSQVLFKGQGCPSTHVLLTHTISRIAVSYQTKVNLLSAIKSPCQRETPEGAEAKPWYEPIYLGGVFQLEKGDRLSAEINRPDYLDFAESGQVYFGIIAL
UniProt P55899, 24-297 limits assumed, chain 1 of 2: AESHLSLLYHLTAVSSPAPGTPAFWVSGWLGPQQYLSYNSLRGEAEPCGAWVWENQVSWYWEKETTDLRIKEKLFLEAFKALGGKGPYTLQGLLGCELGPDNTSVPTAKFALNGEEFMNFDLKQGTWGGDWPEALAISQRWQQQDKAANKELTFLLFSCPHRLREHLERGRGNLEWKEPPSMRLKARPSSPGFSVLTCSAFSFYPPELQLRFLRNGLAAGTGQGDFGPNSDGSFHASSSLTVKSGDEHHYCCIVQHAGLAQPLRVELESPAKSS

Assays:
TNFα = TNFα (human, UniProt P01375 77-233); assay: cell-based or functional assay
[1] = target: T1, monomeric His-tagged human FcRn (human, UniProt P55899 24-297; P61769 21-119); assay: SPR (Biacore 3000), antibody amine-coupled, monomeric His-tagged hFcRn as analyte, pH 6.0, 1:1 Langmuir model, 25 °C
T1 construct: The b2m chain is an addition from general knowledge; also called hFcRn; neonatal Fc receptor

IC50 (read off the curve), L929 TNFα neutralisation [lower panel] (TNFα): ~0.04 µg/mL | Kd [1]: 425 nM
B1: infliximab (antibody)
chain 1: not shown
chain 2: DILLTQSPAILSVSPGERVSFSCRASQFVGSSIHWYQQRTNGSPRLLIKYASESMSGIPSRFSGSGSGTDFTLSINTVESEDIADYYCQQSHSWPFTFGSGTNLEVKRTVAAPSVFIFPPSDEQLKSGTASVVCLLNNFYPREAKVQWKVDNALQSGNSQESVTEQDSKDSTYSLSSTLTLSKADYEKHKVYACEVTHQGLSSPVTKSFNRGEC
